Assay outcomes: PubChem BioAssay, Broad Institute
Sampled rows, rich in hits. Any-hit rate of the full collection: about 1.6%.
CAL PDZ FP-1 = untagged CAL PDZ binding inhibitors, primary screen, biochemical, fluorescence polarization, HTS. inhibition, % at 24.9 µM. purified CAL PDZ, TMR-peptide fluorescence polarization, 1 h. 0.92% of 300,000 active. AID 602252, 2012;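 active = mean inhibition of at least 30% with at least half of replicates also reaching 30%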;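 also: 0% = DMSO neutral control and 100% = excess unlabeled competitor peptide PRC23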
Vif imaging = HIV Vif self-association inhibitors, primary screen, imaging, HEK293T, single point | inhibition, % at 7.49 µM | HEK293T cells, Vif self-association by quenched fluorescence, 24 h | 0.35% of 340,000 active; in the data active = inhibition above about 50%, passing the limit was not always enough
CAL PDZ FP-2 = CAL PDZ peptide-binding inhibitors, primary screen, biochemical, fluorescence polarization, Cer-tagged CAL PDZ, HTS; Golgi-associated PDZ and coiled-coil motif-containing protein (Homo sapiens), Q9HD26; purified CAL PDZ, TMR-peptide fluorescence polarization, 1 h; inhibition, % at 20 µM; 0.02% of 330,000 active;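 active = highest replicate inhibition of at least 40%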;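 also: plate controls were DMSO neutral control wells for no effect and unlabeled competitor peptide control wells for full effect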
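material = purified tagged CAL PDZ domain construct (CerCALP) | compound dosing = 20 µM, one dose | times = 1 h at RT | measured by = fluorescence polarization from S- and P-plane intensities, G-factor corrected | read-out = inhibition from polarization loss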
ARNT-TACC3 inh = disruptors of ARNT/TACC3 protein interaction, primary screen, biochemical, AlphaScreen, single concentration. inhibition, % at 9.99 µM. 0.66% of 390,000 active. AlphaScreen His-ARNT PAS-B/GST-TACC3 binding, luminescence; TACC3 fragment carries E629A point mutation. Transforming acidic coiled-coil-containing protein 3 (Homo sapiens), Q9Y6A5. AID 623870, 2012;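 active = mean inhibition of replicates at least 50% and at least half of replicates each reaching 50%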;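 also: 0% = complete ARNT plus TACC3 wells and 100% = ARNT alone without TACC3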
Yeast UUG start-1 = alters start codon recognition fidelity in yeast | S. cerevisiae UUG-firefly luciferase reporter, luminescence/redox ratio | activity score, % at 18.7 µM | hit rate 0.13% among 350,000 | AID 602363;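 active means replicate mean at a twofold rise or more, about +100% in these data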;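 further: firefly luciferase made from a UUG start codon reports start codon fidelity; reporter light over untreated wells divided by growth signal over untreated wells; some hits fall short of that in this replicate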
PglD DTNB = C. jejuni PglD acetyltransferase inhibitors, primary screen, biochemical, DTNB colorimetric, single point. UDP-N-acetylbacillosamine N-acetyltransferase PglD (Campylobacter jejuni). purified PglD enzyme, DTNB colorimetric CoA detection. inhibition, % at 12.5 µM. 0.098% of 360,000 active. AID 602405, 2012; in the data active = inhibition above about 16%, passing the limit was not always enough
Yeast UUG start-2 = enhancers of UUG start codon usage in yeast, dose response, S. cerevisiae, UUG firefly luciferase, cherry-pick, set 2 | 540 tested, under 10 active | shares compounds with Yeast UUG start-1 | luminescence, 4 h; 100% means double the DMSO signal | activation, % at 38 µM | AID 652061, 2013;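 active = signal increase whose fitted curve reaches an absolute level of 40 at a concentration under 10 µM; inactive = activity opposite to the expected increase, or the rest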
* = called active by the depositor; i = inactive; nt = no result.

canonical_smiles,CAL PDZ FP-1,Vif imaging,CAL PDZ FP-2,ARNT-TACC3 inh,Yeast UUG start-1,PglD DTNB,Yeast UUG start-2
CO[C@H]1CN(C)C(=O)c2ccc(NC(C)=O)cc2OC[C@@H](C)N(Cc2ccncc2)C[C@@H]1C,nt,nt,nt,5,-1,-1,nt
CCCCOc1ccc(C(=O)N2CCCCCC2)cc1,-2,-5,0,-8,-3,-8,nt
O=C(c1ccc(COc2ccc(Cl)cc2)cc1)N1CCCCC1,-1,-13,-2,nt,410*,-3,3
CCN(CC)S(=O)(=O)c1cccc(C(=O)Nc2cc(C)cc(C)c2)c1,1,-9,-2,nt,1,1,nt
CCN(CC)S(=O)(=O)c1ccc(C(=O)Nc2cc(C)cc(C)c2)cc1,-1,nt,-1,7,322*,0,3
CN1CCN(CCC2Oc3cc([N+](=O)[O-])ccc3NC2=O)CC1 (stereo not drawn),0,-2,-2,-3,nt,nt,16
O=C1Nc2ccc([N+](=O)[O-])cc2OC1CCN1CCN(c2ccccc2)CC1 (stereo not drawn),-4,-4,0,34,-25,1,-6
O=[N+]([O-])c1ccc(NCCCN2CCOCC2)c([N+](=O)[O-])c1,3,-3,-1,6,nt,nt,nt
O=C1Nc2ccc([N+](=O)[O-])cc2OC1CCN1CCOCC1 (stereo not drawn),0,15,0,-1,-11,2,6
O=C1Nc2ccc([N+](=O)[O-])cc2OC1CCN1CCCC1 (stereo not drawn),-1,19,39,1,-15,2,nt
O=[N+]([O-])c1ccc(N2CCN(c3ccccc3)CC2)cc1,14,-1,-7,0,-15,-7,nt
O=C(CNC(=O)c1ccccc1F)NCCOc1cccc(Cl)c1Cl,-3,13,-1,nt,517*,-3,2
COc1ccc(-c2nn(-c3ccccc3)cc2/C=C2/SC(=S)N(CCC(=O)O)C2=O)cc1,0,-6,nt,11,6,-19,nt
Cc1ccc(-c2nn(-c3ccccc3)cc2/C=C2\SC(=S)N(CC(=O)O)C2=O)cc1,3,4,-2,3,527*,-2,2
C[C@@H]1CN([C@@H](C)CO)C(=O)c2cc(NC(=O)c3ccncc3)ccc2O[C@H]1CN(C)C(=O)Nc1ccc2c(c1)OCO2,nt,nt,nt,-8,7,10,nt

Compounds above that have nitrogen in an aromatic ring (four):
canonical_smiles,CAL PDZ FP-1,Vif imaging,CAL PDZ FP-2,ARNT-TACC3 inh,Yeast UUG start-1,PglD DTNB,Yeast UUG start-2
CO[C@H]1CN(C)C(=O)c2ccc(NC(C)=O)cc2OC[C@@H](C)N(Cc2ccncc2)C[C@@H]1C,nt,nt,nt,5,-1,-1,nt
COc1ccc(-c2nn(-c3ccccc3)cc2/C=C2/SC(=S)N(CCC(=O)O)C2=O)cc1,0,-6,nt,11,6,-19,nt
Cc1ccc(-c2nn(-c3ccccc3)cc2/C=C2\SC(=S)N(CC(=O)O)C2=O)cc1,3,4,-2,3,527*,-2,2
C[C@@H]1CN([C@@H](C)CO)C(=O)c2cc(NC(=O)c3ccncc3)ccc2O[C@H]1CN(C)C(=O)Nc1ccc2c(c1)OCO2,nt,nt,nt,-8,7,10,nt

New compounds follow
canonical_smiles,CAL PDZ FP-1,Vif imaging,CAL PDZ FP-2,ARNT-TACC3 inh,Yeast UUG start-1,PglD DTNB,Yeast UUG start-2
CN(C)C(=O)C[C@H]1CC[C@@H]2[C@H](COc3ccc(NC(=O)c4ccc(F)cc4)cc3C(=O)N2C)O1,nt,nt,nt,0,nt,0,nt
CC(C)(C#CC(O)(c1ccccc1)c1ccccc1)N1CCCCC1,nt,-1,2,-2,-2,-2,nt
CC(C)(C#CC(O)(c1ccccc1)c1ccccc1)N1CCCC1,-4,-8,-2,-4,nt,nt,11
CC(O)(C#CCN1CCCCCC1)c1ccccc1 (stereo not drawn),0,-6,-1,nt,nt,nt,1
O=C(NC1CCC1)[C@H]1N[C@H]2c3ccc(-c4cccc(F)c4)c(=O)n3C[C@H]2[C@@H]1CO,nt,nt,nt,-2,3,-2,nt
C[C@@H](NC(=O)[C@@H]1[C@@H](CO)[C@@H]2Cn3c(ccc(C4=CCCCC4)c3=O)[C@H]1N2)c1ccccc1,nt,nt,nt,-2,nt,7,nt
CCN(CC)C(=O)C1=C(C)N(CCCN2CCCC2=O)C(=O)C(CC(=O)NCCc2ccccn2)C1 (stereo not drawn),nt,2,nt,nt,-23,-2,nt
CC1=C(C(=O)N(C)C)CC(CC(=O)NCCc2ccccn2)C(=O)N1CCCN1CCCC1=O (stereo not drawn),nt,5,nt,nt,101*,1,-6
CC1=C(C(=O)N(C)C)CC(CC(=O)NCCCN(C)C)C(=O)N1CCCN1CCCC1=O (stereo not drawn),nt,14,nt,nt,104*,4,7
Cc1ccc(NC(=O)CSc2nnc([C@H](C)NC(=O)OC(C)(C)C)o2)c(C)c1,nt,0,-3,16,214*,-8,3
Cc1cccc(NC(=O)CSc2nnc([C@H](C)NC(=O)OC(C)(C)C)o2)c1C,8,-9,-1,-35,-9,-2,nt
Cc1[nH]c2ccccc2c1/C=N/NC(=O)c1cc(-c2ccccc2)n[nH]1,nt,-5,0,8,169*,-9,1
CCC(=O)N1C[C@H](C)[C@H](OC)CN(C)C(=O)c2cc(NC(=O)c3ccc(F)cc3)ccc2OC[C@@H]1C,nt,nt,nt,-7,-1,3,nt
O=C(CNC(=O)c1cccc(F)c1)OCC(=O)N1CCCCC1,3,0,-3,nt,nt,nt,nt
O=C(CNC(=O)c1cccc(F)c1)OCC(=O)N1CCN(C(=O)c2ccco2)CC1,4,-2,0,3,213*,7,-2

(continued)
Labels used below – A = CAL PDZ FP-1; B = Vif imaging; C = CAL PDZ FP-2; D = ARNT-TACC3 inh; E = Yeast UUG start-1; F = PglD DTNB; G = Yeast UUG start-2
CO[C@@H]1CN(C)C(=O)c2ccc(NC(=O)c3cnccn3)cc2OC[C@H](C)N(C)C[C@H]1C
  A: nt	B: nt	C: nt	D: -9	E: nt	F: 0	G: nt

COc1ccc(C(=O)N2CCCc3ccccc32)cc1OC
  A: -3	B: -5	C: nt	D: nt	E: active	F: 1	G: -7

N#CCSc1nnc(-c2sc3ccccc3c2Cl)o1
  A: 1	B: 4	C: -4	D: -7	E: nt	F: nt	G: -1

COC(=O)CSc1nnc(-c2sc3ccccc3c2Cl)o1
  A: -2	B: nt	C: -4	D: -6	E: 565*	F: 8	G: -5

CC(C)NC(=O)Nc1ccc2c(c1)C(=O)N([C@@H](C)CO)C[C@H](C)[C@@H](CN(C)S(=O)(=O)c1ccc(F)cc1)OCCCC[C@H](C)O2
  A: nt	B: nt	C: nt	D: -3	E: 8	F: -4	G: nt

C[C@@H]1CN([C@@H](C)CO)C(=O)c2cc(NC(=O)NC3CCCCC3)ccc2O[C@H]1CN(C)C(=O)Nc1ccccc1
  A: nt	B: nt	C: nt	D: -1	E: 14	F: 0	G: nt

CCCC(=O)Nc1ccc2c(c1)OC[C@@H](C)N(Cc1nccs1)C[C@@H](C)[C@@H](OC)CN(C)C2=O
  A: nt	B: nt	C: nt	D: -6	E: 0	F: 5	G: nt

C/C=C/c1ccc2c(c1)O[C@H](CN(C)Cc1cccc(F)c1)[C@H](C)CN([C@@H](C)CO)S2(=O)=O
  A: nt	B: nt	C: nt	D: 7	E: -11	F: 10	G: nt

O=C(Cc1ccccc1)N1C[C@@H]2[C@H](c3ccccc31)[C@H](CO)N2C(=O)c1ccc(F)cc1
  A: nt	B: nt	C: nt	D: -8	E: 17	F: 3	G: nt

O=C(c1cccnc1)N1C[C@@H]2[C@H](c3ccccc31)[C@H](CO)N2C(=O)C1CCCC1
  A: nt	B: nt	C: nt	D: -11	E: 103*	F: 10	G: i
